For the assay, the target named is Metabotropic glutamate receptor 2 (Homo sapiens, UniProt Q14416). Nature of the assay: Biological Assay: The utility of the compounds in accordance with the present invention as antagonists of metabotropic glutamate receptor activity, in particular mGluR2 activity, may be demonstrated by methodology known in the art. Antagonist constants are determined as follows. The compounds of the present invention were tested in a fluorescence laser imaging plate reader based assay. This assay …. Type of assay: cell-based.

Protein sequences, listed by entry. Tags and fused reporters are not part of them. Lines headed by an entry give the natural chain unless they say otherwise; changes in a name come on top.
UniProt Q14416: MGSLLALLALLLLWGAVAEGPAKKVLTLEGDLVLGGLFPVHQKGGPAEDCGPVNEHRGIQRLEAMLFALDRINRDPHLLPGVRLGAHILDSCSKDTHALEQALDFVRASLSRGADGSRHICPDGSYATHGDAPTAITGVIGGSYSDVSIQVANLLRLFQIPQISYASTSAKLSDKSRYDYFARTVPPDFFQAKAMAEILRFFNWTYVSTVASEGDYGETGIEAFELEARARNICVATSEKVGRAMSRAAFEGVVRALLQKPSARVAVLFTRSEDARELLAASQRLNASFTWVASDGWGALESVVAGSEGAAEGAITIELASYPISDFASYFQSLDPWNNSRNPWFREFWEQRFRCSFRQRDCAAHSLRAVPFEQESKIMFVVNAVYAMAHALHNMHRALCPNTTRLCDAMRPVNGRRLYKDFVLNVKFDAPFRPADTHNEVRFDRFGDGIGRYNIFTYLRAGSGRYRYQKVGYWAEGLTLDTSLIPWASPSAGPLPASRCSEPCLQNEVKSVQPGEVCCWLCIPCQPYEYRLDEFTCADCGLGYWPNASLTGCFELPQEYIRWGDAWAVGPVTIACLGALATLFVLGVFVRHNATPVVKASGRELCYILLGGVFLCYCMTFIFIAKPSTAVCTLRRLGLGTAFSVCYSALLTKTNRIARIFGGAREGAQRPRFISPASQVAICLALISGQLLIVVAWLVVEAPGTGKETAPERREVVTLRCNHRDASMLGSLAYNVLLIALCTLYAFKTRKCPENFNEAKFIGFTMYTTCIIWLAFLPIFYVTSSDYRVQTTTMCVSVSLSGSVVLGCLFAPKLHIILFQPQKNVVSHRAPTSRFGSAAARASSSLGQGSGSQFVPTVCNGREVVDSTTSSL

Broadly, the IC50 is the concentration that inhibits the measured activity by half. A high value points to a need for much substance. With `COC(=O)c1cc(-c2cnn(C)c2)c2ccc(CN3CCO[C@H](C(F)(F)F)C3)c(F)c2n1`, the IC50 was 21 nM.

Compound `COC(=O)c1cc(-c2cnn(C)c2)c2ccc(CN3CCO[C@@H](C(F)(F)F)C3)c(F)c2n1` had an IC50 of 14 nM.

Values taken from ChEMBL document CHEMBL3886589, “Quinoline carboxamide and quinoline carbonitrile derivatives as mGluR2-negative allosteric modulators, compositions, and their use” (2016).
